Laboratory results reported in patent US9957219B2, “Antidiabetic bicyclic compounds” (Merck Sharp & Dohme Corp., priority 2013, dated 2018).

Sequences of proteins named here, by UniProt entry; tags and fusion partners are left off.
UniProt O14842, whole entry: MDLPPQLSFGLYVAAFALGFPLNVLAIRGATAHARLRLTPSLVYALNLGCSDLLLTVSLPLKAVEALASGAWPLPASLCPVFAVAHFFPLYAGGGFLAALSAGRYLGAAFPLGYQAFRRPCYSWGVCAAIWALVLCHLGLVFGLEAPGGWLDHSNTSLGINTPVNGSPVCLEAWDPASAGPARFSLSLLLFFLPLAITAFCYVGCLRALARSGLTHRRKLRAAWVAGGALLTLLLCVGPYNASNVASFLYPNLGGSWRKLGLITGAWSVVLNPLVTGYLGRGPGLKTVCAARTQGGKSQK

Legend:
Human GPR40 [1] = target: T1, Human GPR40 (Homo sapiens, UniProt O14842); assay: FLIPR assay, agonist-induced calcium mobilization in GPR40/CHO NFAT BLA cells; format: cell-based; settings: read-out: Human GPR40, FLIPR, EC50
Description: (§1) Human and mouse GPR40 stable cell-lines were generated in CHO cells stably expressing NFAT BLA (Beta-lactamase). A human GPR40 stable cell-line was generated in HEK cells stably expressing the acquorin expressing reporter. The expression plasmids were transfected using lipofectamine (Life Technologies) following manufacturer's instructions. Stable cell-lines were generated following drug selection.
FLIPR (Fluorimetric Imaging Plate Reader, Molecular Devices) assays were performed to measure agonist-induced calcium mobilization of the stable clones. For the FLIPR assay, one day before assay, GPR40/CHO NFAT BLA cells were seeded into black-wall-clear-bottom 384-well plates (Costar) at 1.4×10e4 cells/20 μL medium/well. The cells were incubated with 20 μl/well of the assay buffer (HBSS, 0.1% BSA, 20 mM HEPES, 2.5 mM probenecid, pH 7.4) containing 8 μM fluo-4, AM, 0.08% pluronic acid at room temperature for 100 minutes. Fluorescence output was measured using FLIPR. Compounds were dissolved in DMSO and diluted to desired concentrations with assay buffer. 13.3 μL/well of compound solution was added.

Human GPR40 [2] = target: T1, Human GPR40; assay: Inositol Phosphate Turnover (IP1) assay in HEK cells stably expressing human GPR40; format: cell-based; settings: read-out: Human GPR40 IP1, EC50
Description: as §1
The assay was performed in 96-well format. HEK cells stably expressing human GPR40 were plated to be 60-80% confluent within 72 h. After 72 h, the plates were aspirated and the cells washed with inositol-free DMEM (ICN). The wash media was replaced with 150 μL of 3H-inositol labeling media (inositol-free media containing 0.4% human albumin or 0.4% mouse albumin, 1× pen/strep antibiotics, glutamine, 25 mM HEPES to which was added 3H-myo-inositol NEN #NET114A 1 mCi/mL, 25 Ci/mmol diluted 1:150 in loading media with a final specific radioactivity of 1 μCi/150 μL). Alternatively, the human and mouse albumin were added after the overnight labeling step before the addition of LiCl.
The assay was typically run the next day after 18 h labeling. On the day of the assay, 5 μL of 300 mM LiCl were added to all wells and incubated at 37 degrees for 20 min. 0.75 μL of 200× compounds were added and incubated with the cells for 60 min at 37 degrees. The media was then aspirated off and the assay terminated with the addition of 60 μL 10 mM formic acid. The cells were lysed for 60 min at room temperature. 15-30 μL of lysate was mixed with 70 μL/1 mg YSi SPA beads (Amersham) in clear bottom Isoplates. The plates were shaken for 2 h at room temperature. Beads were allowed to settle and the plates are counted in the Wallac Microbeta.

Row | Compound | EC50 (Human GPR40 [1]) [µM] | EC50 (Human GPR40 [2]) [µM]
1 | COc1ccc(F)c(-c2ccc3c(c2-c2ccnn2C(C)C)CC[C@H]3Oc2cccc([C@@H](CC(=O)O)C3CC3)c2)c1 | 0.002 | 0.134
2 | COc1ccc(F)c(-c2ccc3c(c2-c2cc(C(F)(F)F)nn2C)CC[C@H]3Oc2cccc([C@@H](CC(=O)O)C3CC3)c2)c1 | 0.004 | 0.391
3 | COc1ccc(F)c(-c2ccc3c(c2-c2cn(C)nn2)CC[C@H]3Oc2cccc([C@H](C3CC3)[C@H](C)C(=O)O)c2)c1 | 0.022 | 0.411
4 | COc1ccc(F)c(-c2ccc3c(c2-c2cnn(C)c2C)CC[C@H]3Oc2cccc([C@H](C3CC3)[C@H](C)C(=O)O)c2)c1 | 0.001 | 0.042
5 | COc1ccc(F)c(-c2ccc3c(c2Cl)CC[C@H]3Oc2cccc([C@@H](CC(=O)O)C3CC3)c2)c1 [Example 36] | 0.007 | –
6 | C=C(C)c1c(-c2cc(OC)ccc2F)ccc2c1CC[C@H]2Oc1cccc([C@@H](CC(=O)O)C2CC2)c1 | 0.006 | 0.232
7 | COc1ccc(F)c(-c2ccc3c(c2-c2cnn4ccccc24)CC[C@H]3Oc2cccc([C@H](C3CC3)[C@H](C)C(=O)O)c2)c1 | 0.0008 | 0.028
8 | COc1ccc(F)c(-c2ccc3c(c2C2CCCC2)CC[C@H]3Oc2cccc([C@@H](CC(=O)O)C3CC3)c2)c1 | 0.003 | 0.347
9 | COc1ccc(F)c(-c2ccc3c(c2-c2cccc4ccn(C)c24)CC[C@H]3Oc2cccc([C@@H](CC(=O)O)C3CC3)c2)c1 | 0.0008 | 0.053
10 | COc1ccc(F)c(-c2ccc3c(c2C2CC2)CC[C@H]3Oc2cccc([C@@H](CC(=O)O)C3CC3)c2)c1 | 0.0008 | 0.094
11 | COc1cc(-c2ccc3c(c2)CC[C@H]3Oc2cccc([C@@H](CC(=O)O)C3CC3)c2)c(F)cn1 | 0.004 | 0.128
12 | COc1ccc(F)c(-c2ccc3c(c2-c2csc(N4CCCC4)n2)CC[C@H]3Oc2cccc([C@@H](CC(=O)O)C3CC3)c2)c1 | 0.013 | 1.16
13 | COc1ccc(F)c(-c2ccc3c(c2/C=C/C2CCCCC2)CC[C@H]3Oc2cccc([C@@H](CC(=O)O)C3CC3)c2)c1 | 0.0005 | 0.186
14 | COc1ccc(F)c(-c2ccc3c(c2-c2ccnn2C)CC[C@H]3Oc2cccc([C@@H](CC(=O)O)C3CC3)c2)c1 | 0.102 | 0.883
15 | COc1ccc(F)c(-c2ccc3c(c2/C=C/C(C)(C)C)CC[C@H]3Oc2cccc([C@@H](CC(=O)O)C3CC3)c2)c1 | 0.004 | 0.243
16 | COc1ccc(F)c(-c2ccc3c(c2-c2cccn2C(=O)OC(C)(C)C)CC[C@H]3Oc2cccc([C@@H](CC(=O)O)C3CC3)c2)c1 | 0.003 | 0.823
17 | COc1ccc(F)c(-c2ccc3c(c2C=C(C)C)CC[C@H]3Oc2cccc([C@@H](CC(=O)O)C3CC3)c2)c1 | 0.0006 | 0.096
18 | COc1ccc(F)c(-c2ccc3c(c2COC(C)(C)C)CC[C@H]3Oc2cccc([C@@H](CC(=O)O)C3CC3)c2)c1 | 0.001 | 0.051
19 | COc1ccc(F)c(-c2ccc3c(c2-c2ccsc2)CC[C@H]3Oc2cccc([C@@H](CC(=O)O)C3CC3)c2)c1 | 0.0007 | 0.16
